# PubChem BioAssay AID652083 (The Scripps Research Institute Molecular Screening Center, 2013)
# The list shows a part of the results. The source made the active and inactive calls.
# Test system: Adrenergic alpha 1 (non-selective)
# Experiment: PubChem AID 652083
# Details: CEREP radioligand binding panel, % inhibition at 10 uM, hits give high values
smiles,measurement,value
COC(=O)c1cc(Br)cnc1N1CCC(NC2CCCCC2)C(O)C1 (stereo unspecified),inhibition of specific binding,inactive: 1%
